Compounds with a hit are over-represented: about 1.7% of the library has one in this group of screens.
GLP-1R agonist: GLP-1 receptor (human) agonism | P43220 | HEK293 GLP-1R CRE-luciferase, luminescence, 4-6 h; cells express a hypersensitive GLP-1R form | Potency, µM (titrated, usually from 45.6 µM), inactives show at the highest dose activation, actives largely listed as activators | actives 0.007% (n = 380,000); further: potency means the concentration at half of the fitted maximal effect; % of control where 0% means no effect
GLP-1R inv ag: inverse agonists of human GLP-1 receptor. P43220. HEK293 GLP-1R CRE-luciferase, luminescence, 24 h; GLP-1R form is constitutively active. Potency, µM (titrated, usually from 38.3 µM), inactives show at the top dose activity change, negative = inhibition, usual class: inhibitors. actives 1.6% (n = 410,000). AID 624417; further: potency means the concentration at half of the fitted maximal effect; on the % scale 0 is the no-effect control and ±100 the full control effect; nearly all actives have a fitted effect of over 55% in size
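Luminescence readout: a drop in cAMP-driven luciferase signal flags inverse agonism at a constitutively active GLP-1R stably expressed in HEK293. Compound exposure lasted 24 hr at 37 deg C, 5% CO2.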
GLP1R cytotox: cytotoxic in the GLP-1 receptor inverse agonist counter-screen; HEK293 cAMP-luciferase reporter cells, luminescence, 24 h; Potency, µM (top dose mostly 38.3 µM), without a hit: at the top dose activity change, negative = inhibition, actives largely listed as inhibitors; actives 0.13% (n = 410,000); AID 624418;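 further: loss of luciferase light is scored as toxicity; potency means the concentration at half of the fitted maximal effect; on the % scale 0 is the no-effect control and ±100 the full control effect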
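To flag toxic compounds, the library was rerun on cells for 24 hr at 37 deg C and 5% CO2. Viability-linked luminescence was captured 12 min after adding luciferase detection reagent.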
Pin1 inhibitor: blocks the human prolyl isomerase Pin1; actives 0.009% (n = 390,000); Pin1 FP peptide displacement, HiFluor488, 10 min; Potency, µM (series often up to 115 µM), for inactives: at the top dose activity, negative = inhibition, usual class: inhibitors; AID 504891; active means well fitted inhibition curve with a large enough effect in the polarisation, with a control signal flat, not every such curve was filed as active; inconclusive means small, poorly fitted or top-dose-only effect, or effect the other way, or a change in a side signal; inactive means no such curve, though single readings can be large or run the other way; the % refers to the polarisation; further: potency means the concentration at half of the fitted maximal effect; on the % scale 0 is the no-effect control and ±100 the full control effect
miR-21 FLuc: miR-21 reporter, rising signal | HeLa miR-21 FLuc reporter, luciferase, 48 h | Potency, µM (highest dose often 38.3 µM), for inactives: at the top dose reporter change, positive = more light | 340,000 tested, under 10 active | AID 2288; active = well fitted rising curve with a large enough effect; inconclusive = small, poorly fitted or top-dose-only effect; inactive = no such curve, though single readings can be large or run the other way;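 further: % of control where 0% means no effect; miR-21 action dims this reporter so a rising signal means less miR-21 action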
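HeLa cells endogenously expressing miR-21, stably carrying CMV-driven firefly luciferase with a downstream miR-21 binding site, 2000 cells/well. Titrations up to approximately 40 uM, 48 hours; luciferase luminescence read.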
PTHR1 ag: activates the human parathyroid hormone receptor PTHR1. HEK293 GP2 PTHR1 cells, GloSensor cAMP luminescence, 1 h. Potency, µM (top dose mostly 115 µM), for the others: at the highest dose activation, hits mostly activators. actives 0.075% (n = 410,000). AID 743266; further: potency means the concentration at half of the fitted maximal effect; nearly all actives have a fitted effect of over 55% in size
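HEK-293-derived GP2 cells expressing PTHR1 and a GloSensor cAMP reporter, 3,000/well, plated overnight, given luciferin plus IBMX (each 0.5 mM as added) for 1 h at 37 °C, then compound for 1 h at 37 °C. Luminescence was read after 15 min at room temperature.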
Starred values were filed as active, the others as inactive; i = inactive; u = inconclusive; x = no result given; [ ] = dose if it differs, or a comment. Unless noted, the call rests on the fitted dose curve; in most records, active means well fitted curve in the direction sought with a large enough effect; inconclusive means small, poorly fitted or top-dose-only effect, or another doubt; inactive means no such curve, though single readings can be large; an effect the other way counts as inactive or inconclusive.

Abbreviations: A = GLP-1R agonist; B = GLP-1R inv ag; C = GLP1R cytotox; D = Pin1 inhibitor; E = miR-21 FLuc; F = PTHR1 ag
(1) CCC(=O)NC(=S)Nc1cccc(Cl)c1N1CCCC1
  A: 9%; B: 5.6µM*; C: u; D: 0%; E: -1%; F: 1%
(2) O=C(NC(=S)Nc1cccc(Cl)c1N1CCCCC1)c1ccc2c(c1)OCCO2
  A: -7%; B: u; C: -8%; D: 14%; E: -24%; F: -28%
(3) O=C(c1cccc2ccccc12)N1CCN(Cc2ccccc2F)CC1
  A: -6%; B: u; C: -5%; D: -12%; E: 7%; F: -24%
(4) Cc1ccccc1CN1CCN(C(=O)c2cccc3ccccc23)CC1
  A: 2%; B: 10µM*; C: -7%; D: -7%; E: -1%; F: -13%
(5) COc1ccc2ccccc2c1CN1CCN(C(=O)c2ccco2)CC1
  A: 7%; B: u; C: u; D: -10%; E: 0%; F: -76%
(6) Cc1cccc(CN2CCN(C(=O)c3cccc4ccccc34)CC2)c1
  A: 10%; B: u; C: -12%; D: 1%; E: 1%; F: -13%
(7) COc1cccc(CN2CCN(C(=O)c3cccc4ccccc34)CC2)c1OC
  A: 20%; B: u; C: -14%; D: 0%; E: 4%; F: -11%
(8) COc1ccc2ccccc2c1CN1CCN(C(=O)c2ccccc2)CC1
  A: -3%; B: 10µM*; C: -8%; D: 0%; E: -1%; F: i
(9) COc1ccccc1CN1CCN(C(=O)c2cccc3ccccc23)CC1
  A: -7%; B: 11µM*; C: 4%; D: -8%; E: x; F: -19%
(10) Cc1ccc(CN2CCN(C(=O)c3cccc4ccccc34)CC2)cc1
  A: 12%; B: 4µM*; C: -2%; D: -24%; E: 25%; F: -34%
(11) Cc1cc(C)cc(N2C(=O)CSC23C(=O)N(CC(=O)NCCc2ccccc2)c2ccccc23)c1 (stereo not given)
  A: -8%; B: 6%; C: -3%; D: 10%; E: 2%; F: i
(12) CCN(CC)CCNC1=NCCn2c1cc1cc(OC)ccc12
  A: -2%; B: 2.8µM*; C: 13%; D: u; E: -3%; F: -8%[57.5 µM]
(13) COc1ccc(C2NCCc3c2[nH]c2ccccc32)cc1CN1CCc2cc(OC)c(OC)cc2C1C (stereo not given)
  A: 10%; B: 8.9µM*; C: u; D: -3%; E: 5%; F: -2%
(14) C=CCn1c(Cc2ccccc2)n[nH]c1=S
  A: 2%; B: 14%; C: 13%; D: -5%; E: 1%; F: i
(15) C=CCn1c(CCc2cc(C(C)(C)C)c(O)c(C(C)(C)C)c2)n[nH]c1=S
  A: 7%; B: u; C: 11µM*; D: -2%; E: 3%; F: -14%
(16) CCN(CC)c1ccc(N=Nc2ccc(S(=O)(=O)N(C)C)cc2)c(S(=O)(=O)NCC[n+]2ccccc2)c1
  A: -1%; B: x; C: x; D: x; E: x; F: x
(17) CCN1CCN(C(=O)CCN(CC(C)C)c2nc(-c3cccs3)nc3ccccc23)CC1
  A: x; B: x; C: x; D: -4%; E: x; F: x
(18) N[C@H]1CN(c2c(F)cc3c(=O)c(C(=O)O)cn(C4C[C@@H]4F)c3c2Cl)CC12CC2 (stereo not given in full)
  A: -4%; B: x; C: x; D: x; E: x; F: x
(19) Cc1ccc(S(=O)(=O)NC(C)(C)CN2CCC(Cc3ccccc3)CC2)cc1
  A: 3%; B: 2.5µM*; C: -30%; D: -6%; E: 25%; F: -27%
(20) CC(C)(CN1CCNCC1)NS(=O)(=O)c1ccc(Cl)cc1
  A: 14%; B: 2µM*; C: u; D: -3%; E: x; F: -23%
(21) O=C(Cn1c(C(=O)N2CCc3ccccc3C2)cc2sccc21)c1ccccc1
  A: 2%; B: 0%; C: -3%; D: 27%; E: 0%; F: 22µM*
(22) CCN1CCOC(=O)C1CC(=O)Nc1cc(Cl)ccc1OC (stereo not given)
  A: 1%; B: -6%; C: -7%; D: 4%; E: -19%; F: i
(23) Fc1ccc(CSc2nc3ccccc3[nH]2)c2ccccc12
  A: 0%; B: 10µM*; C: -9%; D: -2%; E: -15%; F: -25%
(24) CCCN1CNc2c(c(=O)[nH]c(=S)n2CCc2ccc(OCC)c(OCC)c2)C1
  A: x; B: x; C: x; D: -1%; E: x; F: x
(25) COc1ccc(NC(=O)C(C)n2nc(-c3ccc(C)c(C)c3)ccc2=O)cc1OC (stereo not given)
  A: x; B: -3%; C: -13%; D: -2%; E: -13%; F: i
(26) CN1CCC(C(=O)N2CCCC(C(=O)c3ccc4c5c(cccc35)CC4)C2)CC1 (stereo not given)
  A: -1%; B: 8.9µM*; C: -8%; D: 2%; E: 2%; F: i

Quoted at random: three entries already listed
Abbreviations: A = GLP-1R agonist; B = GLP-1R inv ag; C = GLP1R cytotox; D = Pin1 inhibitor; E = miR-21 FLuc; F = PTHR1 ag
(26) CN1CCC(C(=O)N2CCCC(C(=O)c3ccc4c5c(cccc35)CC4)C2)CC1 (stereo not given)
  A: -1%; B: 8.9µM*; C: -8%; D: 2%; E: 2%; F: i
(19) Cc1ccc(S(=O)(=O)NC(C)(C)CN2CCC(Cc3ccccc3)CC2)cc1
  A: 3%; B: 2.5µM*; C: -30%; D: -6%; E: 25%; F: -27%
(12) CCN(CC)CCNC1=NCCn2c1cc1cc(OC)ccc12
  A: -2%; B: 2.8µM*; C: 13%; D: u; E: -3%; F: -8%[57.5 µM]

High-throughput results as filed in PubChem BioAssay.
